This is an account of results in patent US7192924B2, “Corticotropin releasing factor 2 receptor agonists” (priority 2002, dated 2007).

A word on the EC50: it is the concentration at which the effect is half-maximal.

Read-outs that look alike come from different tables or passages of the source.

The target in one assay is T1, CRF2R (Homo sapiens, UniProt Q13324).
T1 sequence (Q13324 1-411): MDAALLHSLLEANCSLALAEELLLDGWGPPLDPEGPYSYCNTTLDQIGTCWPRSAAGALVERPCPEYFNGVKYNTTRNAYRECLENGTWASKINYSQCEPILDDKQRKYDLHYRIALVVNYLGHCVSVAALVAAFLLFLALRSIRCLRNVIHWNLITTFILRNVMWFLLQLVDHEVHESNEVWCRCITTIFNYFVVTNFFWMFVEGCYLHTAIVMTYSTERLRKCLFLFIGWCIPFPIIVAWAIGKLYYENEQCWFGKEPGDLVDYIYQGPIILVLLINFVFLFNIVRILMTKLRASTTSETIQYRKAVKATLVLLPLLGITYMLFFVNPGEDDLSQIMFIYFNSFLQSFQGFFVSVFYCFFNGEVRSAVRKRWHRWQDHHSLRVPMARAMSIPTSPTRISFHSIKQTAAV
The assay is described as follows: CRF2R agonist activity (EC50, Emax), called comparative CRF binding. The assay is classed as cell-based. The essentials:
(§1)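 cAMP read-out: CRE-linked reporter (e.g. luciferase, CAT, GFP) or lysate cAMP in CRF1R- or CRF2R-expressing cells after peptide exposure; vehicle control comparison. Signal from any non-target CRFR subtracted.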

For the next assay, the target named is T2, CRF1R (Homo sapiens, UniProt P34998).
T2 sequence (P34998 24-415): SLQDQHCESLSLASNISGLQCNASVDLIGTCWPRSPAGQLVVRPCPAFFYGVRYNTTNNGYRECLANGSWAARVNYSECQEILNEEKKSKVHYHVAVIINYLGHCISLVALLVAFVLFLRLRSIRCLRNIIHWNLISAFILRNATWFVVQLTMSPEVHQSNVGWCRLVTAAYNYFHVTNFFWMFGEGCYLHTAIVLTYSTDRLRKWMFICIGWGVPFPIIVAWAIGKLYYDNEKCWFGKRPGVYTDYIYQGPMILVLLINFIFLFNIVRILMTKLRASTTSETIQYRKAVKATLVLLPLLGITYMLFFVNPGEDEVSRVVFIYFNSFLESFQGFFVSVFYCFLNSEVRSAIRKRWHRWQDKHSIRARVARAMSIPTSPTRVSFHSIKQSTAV
Description: CRF1R agonist activity (EC50, Emax), called comparative CRF binding. The assay is classed as cell-based. The procedure, abridged: as §1

With `CC[C@H](C)[C@H](NC(=O)[C@@H](NC(=O)[C@H](CC(=O)O)NC(=O)[C@H](CC(C)C)NC(=O)[C@H](CC(C)C)NC(=O)[C@H](CC(C)C)NC(=O)[C@H](CCCNC(=N)N)NC(=O)[C@H](CC(N)=O)NC(=O)[C@H](CC(N)=O)NC(=O)[C@H](C)NC(=O)[C@H](C)NC(=O)[C@H](CCC(N)=O)NC(=O)[C@H](CCC(N)=O)NC(=O)[C@H](CCCCN)NC(=O)[C@H](CCC(=O)O)NC(=O)[C@H](CCCCN)NC(=O)[C@H](CCC(=O)O)NC(=O)[C@H](CCC(N)=O)NC(=O)[C@H](CCCCN)NC(=O)[C@H](CCC(=O)O)NC(=O)[C@@H](NC(=O)[C@H](CCC(=O)O)NC(=O)[C@@H](NC(=O)[C@H](CCSC)NC(=O)[C@H](CCCCN)NC(=O)[C@H](CCCNC(=N)N)NC(=O)[C@H](CC(C)C)NC(=O)[C@H](CC(C)C)NC(=O)[C@H](Cc1c[nH]cn1)NC(=O)[C@H](C)NC(=O)[C@@H]1CCCN1C(=O)[C@H](CC(C)C)NC(=O)[C@H](CC(=O)O)NC(=O)[C@@H](NC(=O)[C@H](CO)NC(=O)[C@@H](NC(=O)[C@@H]1CCCN1C(=O)[C@@H]1CCCN1C(=O)CNC(=O)[C@@H]1CCC(=O)N1)[C@@H](C)CC)[C@@H](C)CC)[C@@H](C)CC)[C@@H](C)CC)[C@@H](C)O)C(N)=O` [compound 206], the EC50 was found to be 30.5 nM on CRF2R (read-out: CRF2R EC50) and 696 nM on CRF1R (read-out: CRF1R EC50).
`CC[C@H](C)[C@H](NC(=O)[C@@H](NC(=O)[C@H](CC(=O)O)NC(=O)[C@H](CC(C)C)NC(=O)[C@H](CC(C)C)NC(=O)[C@H](CC(C)C)NC(=O)[C@H](CCCNC(=N)N)NC(=O)[C@H](CC(N)=O)NC(=O)[C@H](CC(N)=O)NC(=O)[C@H](C)NC(=O)[C@H](C)NC(=O)[C@H](CCC(N)=O)NC(=O)[C@H](CCC(N)=O)NC(=O)[C@H](CCCCN)NC(=O)[C@H](CCC(=O)O)NC(=O)[C@H](CCCCN)NC(=O)[C@H](CCC(=O)O)NC(=O)[C@H](CCC(N)=O)NC(=O)[C@H](CCCCN)NC(=O)[C@H](CCC(=O)O)NC(=O)[C@@H](NC(=O)[C@H](CCC(=O)O)NC(=O)[C@@H](NC(=O)[C@H](CCSC)NC(=O)[C@H](CCCCN)NC(=O)[C@H](CCCNC(=N)N)NC(=O)[C@H](CC(C)C)NC(=O)[C@H](CC(C)C)NC(=O)[C@H](Cc1c[nH]cn1)NC(=O)[C@H](CCC(N)=O)NC(=O)[C@@H]1CCCN1C(=O)[C@H](CC(C)C)NC(=O)[C@H](CC(=O)O)NC(=O)[C@@H](NC(=O)[C@H](CO)NC(=O)[C@@H](NC(=O)[C@@H]1CCCN1C(=O)[C@@H]1CCCN1C(=O)CNC(=O)[C@@H]1CCC(=O)N1)[C@@H](C)CC)[C@@H](C)CC)[C@@H](C)CC)[C@@H](C)CC)[C@@H](C)O)C(N)=O` [compound 207]: the EC50 at CRF2R was determined as 61.4 nM; on CRF1R it was 466 nM.
The like results for `CC[C@H](C)[C@H](NC(=O)[C@@H](NC(=O)[C@H](CC(=O)O)NC(=O)[C@H](CC(C)C)NC(=O)[C@H](CC(C)C)NC(=O)[C@H](CC(C)C)NC(=O)[C@H](CCCNC(=N)N)NC(=O)[C@H](CC(N)=O)NC(=O)[C@H](CC(N)=O)NC(=O)[C@H](C)NC(=O)[C@H](C)NC(=O)[C@H](CCC(N)=O)NC(=O)[C@H](CCC(N)=O)NC(=O)[C@H](CCCCN)NC(=O)[C@H](CCC(=O)O)NC(=O)[C@H](CCCCN)NC(=O)[C@H](CCC(=O)O)NC(=O)[C@H](CCC(N)=O)NC(=O)[C@H](CCCCN)NC(=O)[C@H](CCC(=O)O)NC(=O)[C@@H](NC(=O)[C@H](CCC(=O)O)NC(=O)[C@@H](NC(=O)[C@H](CCSC)NC(=O)[C@H](CCCCN)NC(=O)[C@H](CCCNC(=N)N)NC(=O)[C@H](CC(C)C)NC(=O)[C@H](CC(C)C)NC(=O)[C@H](Cc1c[nH]cn1)NC(=O)[C@H](Cc1ccc(O)cc1)NC(=O)[C@@H]1CCCN1C(=O)[C@H](CC(C)C)NC(=O)[C@H](CC(=O)O)NC(=O)[C@@H](NC(=O)[C@H](CO)NC(=O)[C@@H](NC(=O)[C@@H]1CCCN1C(=O)[C@@H]1CCCN1C(=O)CNC(=O)[C@@H]1CCC(=O)N1)[C@@H](C)CC)[C@@H](C)CC)[C@@H](C)CC)[C@@H](C)CC)[C@@H](C)O)C(N)=O` [compound 208] were, in that order, 5.6 nM and 64.9 nM.
In the case of `CC[C@H](C)[C@H](NC(=O)[C@@H](NC(=O)[C@H](CC(=O)O)NC(=O)[C@H](CC(C)C)NC(=O)[C@H](CC(C)C)NC(=O)[C@H](CC(C)C)NC(=O)[C@H](CCCNC(=N)N)NC(=O)[C@H](CC(N)=O)NC(=O)[C@H](CC(N)=O)NC(=O)[C@H](C)NC(=O)[C@H](C)NC(=O)[C@H](CCC(N)=O)NC(=O)[C@H](CCC(N)=O)NC(=O)[C@H](CCCCN)NC(=O)[C@H](CCC(=O)O)NC(=O)[C@H](CCCCN)NC(=O)[C@H](CCC(=O)O)NC(=O)[C@H](CCC(N)=O)NC(=O)[C@H](CCCCN)NC(=O)[C@H](CCC(=O)O)NC(=O)[C@@H](NC(=O)[C@H](CCC(=O)O)NC(=O)[C@@H](NC(=O)[C@H](CCSC)NC(=O)[C@H](CCCCN)NC(=O)[C@H](CCCNC(=N)N)NC(=O)[C@H](CC(C)C)NC(=O)[C@H](CC(C)C)NC(=O)[C@H](Cc1c[nH]c2ccccc12)NC(=O)[C@H](CC(C)C)NC(=O)[C@@H]1CCCN1C(=O)[C@H](CC(C)C)NC(=O)[C@H](CC(=O)O)NC(=O)[C@@H](NC(=O)[C@H](CO)NC(=O)[C@@H](NC(=O)[C@@H]1CCCN1C(=O)[C@@H]1CCCN1C(=O)CNC(=O)[C@@H]1CCC(=O)N1)[C@@H](C)CC)[C@@H](C)CC)[C@@H](C)CC)[C@@H](C)CC)[C@@H](C)O)C(N)=O` [compound 218], the EC50 at CRF2R (read-out: CRF2R EC50) stood at 4.8 nM; on CRF1R (read-out: CRF1R EC50) it was 98.4 nM.
In the same order, the values of `CC[C@H](C)[C@H](NC(=O)[C@@H](NC(=O)[C@H](CC(=O)O)NC(=O)[C@H](CC(C)C)NC(=O)[C@H](CC(C)C)NC(=O)[C@H](CC(C)C)NC(=O)[C@H](CCCNC(=N)N)NC(=O)[C@H](CC(N)=O)NC(=O)[C@H](CC(N)=O)NC(=O)[C@H](C)NC(=O)[C@H](C)NC(=O)[C@H](CCC(N)=O)NC(=O)[C@H](CCC(N)=O)NC(=O)[C@H](CCCCN)NC(=O)[C@H](CCC(=O)O)NC(=O)[C@H](CCCCN)NC(=O)[C@H](CCC(=O)O)NC(=O)[C@H](CCC(N)=O)NC(=O)[C@H](CCCCN)NC(=O)[C@H](CCC(=O)O)NC(=O)[C@@H](NC(=O)[C@H](CCC(=O)O)NC(=O)[C@@H](NC(=O)[C@H](CCSC)NC(=O)[C@H](CCCCN)NC(=O)[C@H](CCCNC(=N)N)NC(=O)[C@H](CC(C)C)NC(=O)[C@H](CC(C)C)NC(=O)[C@H](Cc1ccccc1)NC(=O)[C@H](Cc1ccc(O)cc1)NC(=O)[C@@H]1CCCN1C(=O)[C@H](CC(C)C)NC(=O)[C@H](CC(=O)O)NC(=O)[C@@H](NC(=O)[C@H](CO)NC(=O)[C@@H](NC(=O)[C@@H]1CCCN1C(=O)[C@@H]1CCCN1C(=O)CNC(=O)[C@@H]1CCC(=O)N1)[C@@H](C)CC)[C@@H](C)CC)[C@@H](C)CC)[C@@H](C)CC)[C@@H](C)O)C(N)=O` [compound 220] are 4.1 nM and 63.6 nM.
In the same order, the values of `CC[C@H](C)[C@H](NC(=O)[C@@H](NC(=O)[C@H](CC(=O)O)NC(=O)[C@H](CC(C)C)NC(=O)[C@H](CC(C)C)NC(=O)[C@H](CC(C)C)NC(=O)[C@H](C)NC(=O)[C@H](CC(N)=O)NC(=O)[C@H](CC(N)=O)NC(=O)[C@H](C)NC(=O)[C@H](C)NC(=O)[C@H](CCC(N)=O)NC(=O)[C@H](CCC(N)=O)NC(=O)[C@H](CCCCN)NC(=O)[C@H](CCC(=O)O)NC(=O)[C@H](CCCCN)NC(=O)[C@H](CCC(=O)O)NC(=O)[C@H](CCC(N)=O)NC(=O)[C@H](CCCCN)NC(=O)[C@H](CCC(=O)O)NC(=O)[C@@H](NC(=O)[C@H](CCC(=O)O)NC(=O)[C@@H](NC(=O)[C@H](CCSC)NC(=O)[C@H](CCCCN)NC(=O)[C@H](CCCNC(=N)N)NC(=O)[C@H](CC(C)C)NC(=O)[C@H](CC(C)C)NC(=O)[C@H](Cc1ccc(O)cc1)NC(=O)[C@H](CCC(N)=O)NC(=O)[C@@H]1CCCN1C(=O)[C@H](CC(C)C)NC(=O)[C@H](CC(=O)O)NC(=O)[C@@H](NC(=O)[C@H](CO)NC(=O)[C@@H](NC(=O)[C@@H]1CCCN1C(=O)[C@@H]1CCCN1C(=O)CNC(=O)[C@@H]1CCC(=O)N1)[C@@H](C)CC)[C@@H](C)CC)[C@@H](C)CC)[C@@H](C)CC)[C@@H](C)O)C(N)=O` [compound 224] are 26.9 nM and at least 1000 nM.
